Measured values taken from US20110046227A1, “METHODS FOR CONCOMITANT ADMINISTRATION OF […] A SECOND ACTIVE AGENT” (MUTUAL PHARMACEUTICAL COMPANY, INC., priority 2009, published 2011).

Experiment: Pharmacokinetic study in healthy adults of single vs. multiple oral doses of colchicine tablets (Example 1);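 also: Single-dose and multiple-dose periods given to the same subjects, with a 14-day washout between the two periods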
Assay type: in vivo, human
Settings: multiple (b.i.d.) oral doses colchicine 0.6 mg for 10 days, Day 25, healthy adults N=13, plasma

COc1cc2c(c(OC)c1OC)-c1ccc(OC)c(=O)cc1[C@@H](NC(C)=O)CC2 [Colchicine, (−)-N-[(7S,12aS)-1,2,3,10-tetramethoxy-9-oxo-5,6,7,9-tetrahydrobenzo[a]heptalen-7-yl]-acetamide]
Cmin, MEAN: 0.90651 ng/mL
